This passage reports Kd results from patent publication US12049520B2, “Bicyclic peptide ligands specific for CD137” (priority 2017, dated 2024).

One may read the Kd as a measure of binding affinity in units of concentration.

One assay addresses T1, Recombinant human CD137 homotrimer (Homo sapiens, UniProt Q07011).
T1 construct: purchased R&D systems
T1 sequence (Q07011 24-186 limits assumed): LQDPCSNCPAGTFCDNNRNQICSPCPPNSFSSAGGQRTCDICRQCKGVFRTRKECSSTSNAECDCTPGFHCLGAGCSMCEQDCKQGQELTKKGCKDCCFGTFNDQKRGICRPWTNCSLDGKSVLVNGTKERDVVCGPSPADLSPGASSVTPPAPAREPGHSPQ
Kind of assay: CD137 Biacore (SPR), biotinylated CD137 target assay. It counts as binding. The following applies: Table 5, SPR, biotinylated CD137 captured on streptavidin, 25° C. A general note: In SPR one partner is held on a chip, and binding of the other changes the refractive index at the surface.
For the substance ACIEEGQYCFADPY(Nle)CA [BCY3814], the Kd worked out at 33.3 nM.

As for ACIEEGQYCFADPYMCA [BCY592], the Kd stood at 41.8 nM.

On to ACIEEGQYCF[dA]DPY[Nle]CA [BCY8217], for which the Kd turned out to be 500 nM.

For “[Ac]ACIEEG(55DMP]YCFADPY[Nle]CA [BCY7950]”, the Kd came out at 31.1 nM.

Consider [Ac]ACIEEGAYCFADPY[Nle]CA [BCY8667], for which the Kd came to 68.5 nM.

As for [Ac]ACIEEGQYCFADPYMCA [BCY9273], the Kd was 108 nM.

On to [Ac]ACIEEGQYCFAD[HyP]Y[Nle]CA [BCY7953], for which the Kd was determined as 86.6 nM.

As to [Ac]ACIEEGQYCFAD[Oic]Y[Nle]CA [BCY7955], the Kd was determined as 169 nM.

As to [Ac]ACIEEGQYCFAD[Oxa]Y[Nle]CA [BCY7957], the Kd turned out to be 118 nM.

In the case of [Ac]ACIEEGQYCF[Abu]DPY[Nle]CA [BCY8676], the Kd was found to be 1000 nM.

For the substance “[Ac]ACIEEGQYCF[NMeAla]DPY[Nle]CA [BCY7945]”, the Kd is 665 nM.

For “[Ac]ACIEEGQYC[1Nal]ADPY[Nle]CA [BCY7943]”, the Kd stood at 151 nM.

As to “[Ac]ACIEEGQYC[2Nal]ADPY[Nle]CA [BCY8673]”, the Kd was 117 nM.

Regarding “[Ac]ACIEEGQYC[2Pal]ADPY[Nle]CA [BCY7939]”, the Kd was 98.6 nM.

Consider “[Ac]ACIEEGQYC[3Pal]ADPY[Nle]CA [BCY7940]”, for which the Kd stood at 58.6 nM.

On to “[Ac]ACIEEGQYC[4BrPhe]ADPY[Nle]CA [BCY8675]”, for which the Kd worked out at 57.5 nM.

With “[Ac]ACIEEGQYC[4Pal]ADPY(Nle]CA [BCY7941]”, the Kd worked out at 44.4 nM.

As for “[Ac]ACIEEGQYC[44BPA]ADPY[Nle]CA [BCY7942]”, the Kd amounted to 35.9 nM.

“[Ac]ACIEEGQYC[HPhe]ADPY[Nle]CA [BCY7937]”: the Kd came to 556 nM.

Take “[Ac]ACIEEGQYC[NO2Phe]ADPY[Nle]CA [BCY8674]”: the Kd amounted to 44.5 nM.

For “[Ac]ACIEEGQ[1Nal]CFADPY[Nle]CA [BCY8671]”, the Kd is 297 nM.

For the substance “[Ac]ACIEEGQ[2Pal]CFADPY[Nle]CA [BCY7933]”, the Kd is 790 nM.

As for “[Ac]ACIEEGQ[3Pal]CFADPY[Nle]CA [BCY7934]”, the Kd was 196 nM.

In the case of “[Ac]ACIEEGQ[4MePhe]CFADPY[Nle]CA [BCY8670]”, the Kd was found to be 1000 nM.

Take “[Ac]ACIEEGQ[44BPA]CFADPY[Nle]CA [BCY7936]”: the Kd was found to be 43 nM.

For the substance “[Ac]ACIEEGQ[HPhe]CFADPY[Nle]CA [BCY7931]”, the Kd turned out to be 1750 nM.

On to “[Ac]ACIEEG[AC5C]YCFADPY[NlelCA [BCY8669]”, for which the Kd amounted to 33.2 nM.

On to [Ac]ACIEEG[Aib]YCFADPY[Nle]CA [BCY8668], for which the Kd was 28.7 nM.

Turning to [Ac]ACIEEG[HyP]YCFADPY[Nle]CA [BCY7952], the Kd came out at 11.8 nM.

“[Ac]ACIEEG[NMeAla]YCFADPY[Nle]CA [BCY7929]”: the Kd was determined as 269 nM.

With [Ac]ACIEEG[Oic]YCFADPY[Nle]CA [BCY7954], the Kd turned out to be 11.1 nM.

Consider [Ac]ACIEEG[Oxa]YCFADPY[Nle]CA [BCY7959], for which the Kd worked out at 37.7 nM.

Take “[Ac]ACIEE[AC5C]QYCFADPY[Nle]CA [BCY8665]”: the Kd was found to be 200 nM.

As for [Ac]ACIEE[dA]QYCFADPY[Nle]CA [BCY8664], the Kd came to 59.5 nM.

With [Ac]ACIEE[dD]QYCFADPY[Nle]CA [BCY7928], the Kd is 97 nM.

Turning to [Ac]ACIEE[dF]QYCFADPY[Nle]CA [BCY8663], the Kd was determined as 25.1 nM.

For [Ac]ACIEQGQYCFADPY[Nle]CA [BCY8662], the Kd is 179 nM.

For the substance “[Ac]ACIE[NMeGlu]GQYCFADPY[Nle]CA [BCY7927]”, the Kd came to 1650 nM.

[Ac]ACIPEGPYCFADPY[Nle]CA [BCY7960]: the Kd came to 10.7 nM.

Turning to [Ac]ACIPEGQYCFADPY[Nle]CA [BCY8659], the Kd was determined as 33.4 nM.

With [Ac]ACIPE[dA]PYCFADPY[Nle]CA [BCY7961], the Kd came to 10 nM.

In the case of [Ac]ACIQEGQYCFADPY[Nle]CA [BCY8660], the dissociation constant Kd was determined as 380 nM.

On to [Ac]ACI[Aze]EGQYCFADPY[Nle]CA [BCY7924], for which the Kd was 59 nM.

On to “[Ac]ACI[NMeGlu]EGQYCFADPY(Nle]CA [BCY7926]”, for which the Kd came to 220 nM.

For the substance [Ac]ACI[Oic]EGQYCFADPY[Nle]CA [BCY7956], the Kd is 228 nM.

For the substance [Ac]ACI[Oxa]EGQYCFADPY[Nle]CA [BCY7958], the Kd is 20 nM.

On to [Ac]ACI[Pip]EGQYCFADPY[Nle]CA [BCY7925], for which the Kd came out at 105 nM.

On to “[Ac]AC[AC5C]EEGQYCFADPY[Nle]CA [BCY8658]”, for which the Kd stood at 200 nM.

Consider [Ac]AC[Chg]EEGQYCFADPY[Nle]CA [BCY8657], for which the equilibrium dissociation constant (Kd) worked out at 62.4 nM.

For “[Ac]AC[NMelle]EEGQYCFADPY[Nle]CA [BCY7923]”, the Kd is 1150 nM.

Regarding “[Ac]AC[tBuAla]EEGQYCFADPY[Nle]CA [BCY8656]”, the Kd turned out to be 31 nM.

For “[Ac]AC[tBuAla]PE[dA]PYCFADPY[Nle]CA [BCY7965]”, the Kd was found to be 4.75 nM.

In the case of [Ac]CIEEGQYCFADPYMC [BCY593], the equilibrium dissociation constant (Kd) amounted to 37 nM.

Still in this assay, the particulars now being: Table 5, SPR, biotinylated CD137 captured on streptavidin, 25° C.; read-out: KD.
Turning to (Ac]ACIEPGQYCFADPY[Nle]CA [BCY8661], the Kd turned out to be 154 nM.

Take “Ac]ACIEEGQYC[4tBuPhe]ADPY[Nle]CA [BCY7944]”: the Kd turned out to be 42.2 nM.

With “Ac]ACIEEGQ[NMeTyr]CFADPY[Nle]CA [BCY7930]”, the Kd amounted to 993 nM.

A further assay addresses T2, human CD137 (AcroBiosystems) protein (Homo sapiens, UniProt Q07011).
T2 construct: purchased AcroBiosystems
Briefly: CD137 Biacore (SPR), amine coupled CD137 target assay. The following applies: Table 4, SPR, amine coupled CD137 on CM5 chip. The format is binding.
On to ACIEEGQYCFADPYLCA [BCY599], for which the Kd was found to be 191 nM.

In turn, ACIEEGQYCFADPYMCA [BCY592] returned a Kd of 70.9 nM.

On to ACLPPGPYCFPDPYFCA [BCY631], for which binding was characterised by a dissociation constant (Kd) of 92.3 nM.

Take HEHCIEEGQYCYADPYMCA [BCY589]: the Kd worked out at 124 nM.

In the next assay the target is CD137 (Homo sapiens, UniProt Q07011). Kind of assay: CD137 direct binding assay (fluorescence polarisation). The following applies: Table 1, fluorescein-labelled peptides, CD137 protein titrated from 3 μM. On the technique in general: Polarisation of emitted light reports the rotation of a fluorescent probe.
Turning to ACDEWGLYCFAHPDCA-Sar6-K [BCY659], the Kd amounted to 1040 nM.

ACDIGPPYCYRDMYMCA-Sar6-K [BCY655] came in with a Kd of 1340 nM.

ACIEEGQYCFADPYLCA-Sar6-K [BCY650]: binding was characterised by a dissociation constant (Kd) of 86.5 nM.

In the case of ACIEEGQYCFADPYMCA-Sar6-K [BCY640], binding was put at a Kd of 84 nM.

In turn, ACIEEGQYCHADPQMCA-Sar6-K [BCY653] displayed a Kd of 383 nM.

Substance ACIEEGQYCHADPYFCA-Sar6-K [BCY644] came in with a Kd of 145 nM.

ACIEEGQYCHADPYMCA-Sar6-K [BCY652] yielded a Kd of 142 nM.

In turn, ACIEEGQYCHADPYYCA-Sar6-K [BCY643] yielded a Kd of 148 nM.

As for ACIEEGQYCYADHQLCA-Sar6-K [BCY642], binding was characterised by a dissociation constant (Kd) of 246 nM.

Substance ACIEEGQYCYADPYLCA-Sar6-K [BCY646] came in with a Kd of 105 nM.

The substance ACIEEGQYCYADPYLCSVG-Sar6-K [BCY647] gave a Kd of 392 nM.

Turning to ACIEEGQYCYADPYMCA-Sar6-K(FI) [BCY636], the Kd was 124 nM.

As for ACIEEGQYCYADPYYCASar6-K [BCY638], the Kd was determined as 192 nM.

In turn, ACIEEGQYCYSDPYLCA-Sar6-K [BCY649] registered a Kd of 207 nM.

Regarding ACIEEGQYCYSDPYYCA-Sar6-K [BCY639], the Kd is 229 nM.

In the case of ACIEQGPFCFADPYMCA-Sar6-K [BCY7257], the Kd was found to be 109 nM.

With ACINEGPYCFADPYMCA-Sar6-K [BCY7255], the Kd amounted to 136 nM.

For the substance ACLDEGPFCFSDPYMCA-Sar6-K [BCY7261], the Kd was found to be 453 nM.

ACLDEGPYCFADPYFCA-Sar6-K [BCY7253]: the Kd came to 183 nM.

In turn, ACLDPGPFCFADPYMCA-Sar6-K [BCY7251] returned a Kd of 193 nM.

ACLDPGPYCYADPYMCTFH-Sar6-K [BCY7119]: the Kd worked out at 144 nM.

The substance ACLEPGPYCYADPYMCTHL-Sar6-K [BCY7120] returned a Kd of 160 nM.

ACLPPGPYCFPDPYFCA-Sar6-K [BCY7122]: the affinity, expressed as Kd, was 147 nM.

ACVEEGPFCFADPYYCA-Sar6-K [BCY7259] registered a Kd of 105 nM.

Regarding G-Sar5-ACIEEGQYCFADPYMCA [BCY641], the Kd came out at 152 nM.

In turn, “[Ac]ACIEEGQYCYRDMYMCA-Sar6-K(FI) [BCY634]” showed a Kd of 1380 nM.

The substance [B-Ala]-Sar5-ACDEWGLFCIPHSDCA [BCY657] displayed a Kd of 3620 nM.

[B-Ala]-Sar5-ACIEEGQYCYADPYMCA [BCY635] registered a Kd of 126 nM.

Substance [B-Ala]-Sar5-ACIEEGQYCYADPYYCA [BCY637] came in with a Kd of 122 nM.

For [B-Ala]-Sar5-ACIEEGQYCYRDMYMCA [BCY633], the Kd is 1840 nM.
